Experimental findings from patent publication US9879094B2, “Nucleic acid molecules encoding for BACE1 antibodies” (Genentech, Inc., priority 2010, dated 2018) are described below.

Chains of the proteins cited; added tags and fusions are not shown. Residues count along the entry.
UniProt P56817, 22-457: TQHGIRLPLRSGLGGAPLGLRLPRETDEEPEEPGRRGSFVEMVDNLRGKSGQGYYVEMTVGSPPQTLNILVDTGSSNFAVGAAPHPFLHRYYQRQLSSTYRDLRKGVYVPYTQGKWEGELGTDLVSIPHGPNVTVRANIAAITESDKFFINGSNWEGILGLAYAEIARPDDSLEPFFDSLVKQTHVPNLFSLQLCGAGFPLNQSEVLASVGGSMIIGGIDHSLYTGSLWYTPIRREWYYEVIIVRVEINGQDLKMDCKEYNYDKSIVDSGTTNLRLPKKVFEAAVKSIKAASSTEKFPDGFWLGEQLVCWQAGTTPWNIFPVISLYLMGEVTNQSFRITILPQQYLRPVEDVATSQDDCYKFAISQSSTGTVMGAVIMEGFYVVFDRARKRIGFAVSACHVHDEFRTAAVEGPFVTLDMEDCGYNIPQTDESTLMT

The target in this assay is BACE1 (Homo sapiens, UniProt P56817). The experiment in a line: HTRF BACE1 enzyme activity assay (long peptide Bi27). Format: biochemical. Here is the method:
The HTRF assay was performed as follows. […] The proteolytic reaction mixture was incubated at ambient temperature for 75 minutes and was quenched by the addition of 5 μL HTRF detection mixture containing 2 nM Streptavidin-D2 and 150 nM of 6E10 anti-amyloid beta antibody (Covance, Emoryville, Calif.) labeled with Europium cryptate in detection buffer (200 mM Tris pH 8.0, 20 mM EDTA, 0.1% BSA, and 0.8M KF). The final reaction mixture was incubated at ambient temperature for 60 minutes and the TR-FRET signal was measured using an EnVision Multilabel Plate Reader™ (Perkin-Elmer) at an excitation wavelength of 320 nm and emission wavelengths of 615 and 665 nm. Reactions lacking BACE1 enzyme (0 BACE) and reactions containing lacking anti-BACE1 antibodies (PBS (100% BACE1 Activity) were used as controls.
Fab proteins of 6 clones were purified and subjected for HTRF enzyme activity assay, as described above.
The affinity matured YW412.8.31 anti-BACE1 antibody was tested in a HTRF assay as described in Example 1. […] The resulting fluorogenic products from the control reactions were measured as above, but at an excitation wavelength of 545 nm and an emission wavelength of 585 nm. Obtained data were analyzed using GraphPad Prism 5™ (LaJolla, Calif.).

B1: LC10 (antibody, V domains shown)
VL: DIQMTQSPSSLSASVGDRVTITCRASQSVSSAVAWYQQKPGKAPKLLIWWASSLYSGVPSRFSGSGSGTDFTLTISSLQPEDFATYYCQQYSYSPFTFGQGTKVEIK
VH: EISEVQLVESGGGLVQPGGSLRLSCAASGFNFYYSSIHWVRQAPGKGLEWVASISPYSGYTSYADSVKGRFTISADTSKNTAYLQMNSLRAEDTAVYYCARQPTHYYYYAKGYKAMDYWGQGTLVTVSS
In the case of B1, the “improvement in inhibition activity” value (affinity improved derivatives of Fab 12) is “approximately 20 fold”.

B2: LC11 (antibody, V domains shown)
VL: DIQMTQSPSSLSASVGDRVTITCRASQSVSSAVAWYQQKPGKAPKLLIYSASSLYSGVPSRFSGSGSGTDFTLTISSLQPEDFATYYCQQYYPLTFGQGTKVEIK
VH: EISEVQLVESGGGLVQPGGSLRLSCAASGFNLSYSYIHWVRQAPGKGLEWVASIYSSYGSTYYADSVKGRFTISADTSKNTAYLQMNSLRAEDTAVYYCARSYHHSDKYYYAWSYALDYWGQGTLVTVSS
For B2, for the setting “purified affinity matured Fabs”, the “inhibition activity compared to parent Fab” value is “lost inhibition activity”.
